Experimental data as given in ChEMBL document CHEMBL1128359, “Dicarboxylic acid dipeptide neutral endopeptidase inhibitors” (J Med Chem, 1995).

Target: T1, Neprilysin (Rattus norvegicus, UniProt P07861)
T1 sequence (P07861 whole entry): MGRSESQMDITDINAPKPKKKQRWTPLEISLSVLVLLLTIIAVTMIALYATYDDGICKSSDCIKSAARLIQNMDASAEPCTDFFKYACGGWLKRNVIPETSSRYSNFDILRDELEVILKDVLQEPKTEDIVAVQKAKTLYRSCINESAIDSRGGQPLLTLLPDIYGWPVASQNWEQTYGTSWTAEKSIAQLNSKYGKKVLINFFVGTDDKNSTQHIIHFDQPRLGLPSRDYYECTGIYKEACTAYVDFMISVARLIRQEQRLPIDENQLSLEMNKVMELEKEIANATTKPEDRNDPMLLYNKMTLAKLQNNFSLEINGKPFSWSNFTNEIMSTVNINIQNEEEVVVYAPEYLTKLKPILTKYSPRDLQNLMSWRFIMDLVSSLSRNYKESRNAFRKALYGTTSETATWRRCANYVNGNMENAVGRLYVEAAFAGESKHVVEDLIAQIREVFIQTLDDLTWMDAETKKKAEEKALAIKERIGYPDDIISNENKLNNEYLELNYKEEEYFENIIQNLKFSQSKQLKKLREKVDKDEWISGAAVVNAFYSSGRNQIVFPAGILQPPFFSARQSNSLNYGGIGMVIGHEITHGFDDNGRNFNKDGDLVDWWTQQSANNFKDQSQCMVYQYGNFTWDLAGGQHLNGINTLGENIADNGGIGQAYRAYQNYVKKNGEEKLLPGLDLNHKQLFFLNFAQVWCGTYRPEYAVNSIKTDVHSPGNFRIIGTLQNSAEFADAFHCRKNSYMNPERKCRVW
Assay: In vitro inhibition of rat neutral endopeptidase by using GAAP as substrate
Method in brief: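 Enzyme source was rat kidney cortex membranes (male Sprague-Dawley), 4.0 μg protein, plus 2.5 μg aminopeptidase M, in 50 mM Tris-HCl pH 7.4. Preincubated with inhibitor 10 min at 25 °C, then GAAP added (final 500 μM) for 25 min at 25 °C. Stopped with fast garnet, colour developed 30 min, OD read at 540 nm. Run in duplicate.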

- IC50: 99 nM
SMILES: O=C(O)CCC(=O)N[C@@H](CCC(=O)O)Cc1ccc(-c2ccccc2)cc1
